The text below walks through data of patent publication US4820727A, “N-acyl-N-naphthoylglycines as aldose reductase inhibitors” (American Home Products Corporation, priority 1987, dated 1989).

One assay addresses T1, aldose reductase (Bos taurus, UniProt P16116).
T1 construct: preparation of the enzyme from bovine lens; from tissue; host or cells: bovine lens
In words: In vitro aldose reductase inhibition (modified Hayman and Kinoshita procedure, enzyme from bovine lens). It is filed as biochemical. Particulars: for inhibition at 10 µM: read-out: % Inhibition IN VITRO 10^-5 M; for inhibition at 1 µM: read-out: % Inhibition IN VITRO 10^-6 M. The source says:
In the present case the procedure of Hayman and Kinoshita was modified in that the final chromatography step was omitted in the preparation of the enzyme from bovine lens.

For the next assay, the system named is dulcitol accumulation. In words: Galactosemic rats, % lowering of dulcitol (galactitol) accumulation in vivo. Details: species or system Sprague-Dawley rats. As to conditions: diaphragm, 4 days. The text has this:
Such experiments are exemplified hereinbelow after the listing of the following general comments pertaining to these experiments:
(a) Four or more groups of six male rats, 50-70 g, Sprague-Dawley strain, were used. The first group, the control group, was fed a mixture of laboratory chow (rodent Laboratory Chow, Purina) and glucose at 20% (w/w %) concentration. […] The test compound was either admixed to the diet or administered by gavage. In experiments involving compound administration in the diet, the average dose administered was calculated from the actual food intake of the animals in each group. The concentration of galactose in the diet of the treated groups was the same as that for the untreated galactosemic group.
(b) After four days, the animals were killed by decapitation. The eyeballs were removed and punctured with a razor blade; the freed lenses were rolled gently on filter paper and weighed. The sciatic nerves were dissected as completely as possible and weighed. Both tissues when frozen can be kept up to two weeks before being analyzed for galactitol.
Only two minor reagent changes were made: (a) the rinsing mixture was an aqueous 5% (w/v) trichloroacetic acid solution and (b) the stock solution was prepared by dissolving 25 mg of dulcitol in 100 mL of an aqueous trichloroacetic acid solution. […]

Broadly, the inhibition is the drop in the measured response relative to a control, in per cent. As to `CCOC(=O)N(CC(=O)O)C(=O)c1c(Cl)ccc2c(C(F)(F)F)c(OC)ccc12` [Example 8, N-[[2-Chloro-6-methoxy-5-(trifluoromethyl)-1-naphthalenyl]carbonyl]-N-(ethoxycarbonyl)glycine], on aldose reductase, the inhibition at 10 µM was determined as 97% and the inhibition at 1 µM amounted to 94%.

As for `COC(=O)N(CC(=O)O)C(=O)c1c(F)ccc2c(C(F)(F)F)c(OC)ccc12` [Example 1, N-[[2-fluoro-6-methoxy-5-(trifluoromethyl)-1-naphthalenyl]carbonyl]-N-(methoxycarbonyl)glycine], the figures for the “% Lowering dulcitol accumulation IN VIVO, D” value with dulcitol accumulation (14 mg/kg) and with dulcitol accumulation (15 mg/kg) were 74% and 80%, respectively.

Regarding `COC(=O)N(CC(=O)O)C(=O)c1c(OCC(F)(F)F)ccc2c(C(F)(F)F)c(OC)ccc12` [Example 6, N-[[6-Methoxy-2-(2,2,2-trifluoroethoxy)-5-(trifluoromethyl)-1-naphthalenyl]carbonyl]-N-(methoxycarbonyl)glycine], on aldose reductase, the inhibition at 10 µM came out at 100% and the inhibition at 1 µM was determined as 94%.
